Test results from ChEMBL document CHEMBL4043223, “Structure-activity relationship study of small molecule inhibitors of the DEPTOR-mTOR interaction” (Bioorg Med Chem Lett, 2017).

Sequences of proteins named here, by UniProt entry; tags and fusion partners are left off.
UniProt Q8TB45, whole entry: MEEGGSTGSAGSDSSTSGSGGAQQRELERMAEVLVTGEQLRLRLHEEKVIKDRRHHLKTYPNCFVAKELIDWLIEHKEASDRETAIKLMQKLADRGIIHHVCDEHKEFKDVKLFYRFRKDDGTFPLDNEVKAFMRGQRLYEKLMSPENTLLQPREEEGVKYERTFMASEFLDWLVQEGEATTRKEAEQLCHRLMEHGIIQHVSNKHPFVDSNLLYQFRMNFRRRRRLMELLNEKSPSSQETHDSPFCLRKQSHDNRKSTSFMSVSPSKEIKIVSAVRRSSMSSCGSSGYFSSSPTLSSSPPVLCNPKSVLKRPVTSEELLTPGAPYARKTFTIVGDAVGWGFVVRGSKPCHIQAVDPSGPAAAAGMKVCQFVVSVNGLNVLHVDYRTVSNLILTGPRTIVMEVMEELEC

Biological target: DEP domain-containing mTOR-interacting protein (Homo sapiens) (UniProt Q8TB45)
Assay: Inhibition of mTOR binding to DEPTOR in human RPMI8226 cells assessed as increase in mTORC1-associated p70 phosphorylation after 6 hrs by Western blot analysis relative to control
Format: cell-based

For `FC(F)(F)c1cccc(NN=C2C(Cl)=C(Cl)C(Cl)=C2Cl)c1`, the fold change (FC) was 4.
